In the test the target is 5-hydroxytryptamine receptor 1A (Rattus norvegicus, UniProt P19327). Briefly: Binding affinity towards rat 5-hydroxytryptamine 1A receptor was evaluated using [3H]8-OH-DPAT as radioligand.

Protein sequences, listed by entry. Tags and fused reporters are not part of them.
UniProt P19327, whole entry: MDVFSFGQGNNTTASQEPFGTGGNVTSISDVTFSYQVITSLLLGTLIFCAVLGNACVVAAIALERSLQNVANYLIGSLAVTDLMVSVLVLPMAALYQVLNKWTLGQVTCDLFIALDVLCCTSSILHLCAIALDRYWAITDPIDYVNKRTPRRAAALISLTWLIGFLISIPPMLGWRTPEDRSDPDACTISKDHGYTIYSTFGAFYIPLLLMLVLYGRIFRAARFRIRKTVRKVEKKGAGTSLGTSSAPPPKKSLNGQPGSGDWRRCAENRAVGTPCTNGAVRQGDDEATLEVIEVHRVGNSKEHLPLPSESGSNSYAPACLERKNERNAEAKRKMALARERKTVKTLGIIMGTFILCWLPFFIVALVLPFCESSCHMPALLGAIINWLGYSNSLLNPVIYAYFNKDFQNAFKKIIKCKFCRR

Here are results for 1 compound from ChEMBL document CHEMBL1129592 (J Med Chem, 1996).

Usually IC50 stands for the concentration that inhibits the measured activity by half.

`COc1ccc2c(c1)CCCC2CCCN1CCN(c2ccccc2)CC1` (stereo unspecified) displayed an IC50 of 5.4 nM.
